Measurements: patent US9139551B2, “Preparation of a new class of water-soluble ammonium 2,3-dihydroxy-5-((2R,3R)-3,5,7-trihydroxy-4-oxochroman-2-yl) phenolates and their biological activity of alcohol elimination” (priority 2014, dated 2015)

Assay: Solubility in water
Conditions: room temperature

triethylammonium 2,3-dihydroxy-5-((2R,3R)-3,5,7-trihydroxy-4-oxochroman-2-yl)phenolate
solubility in water: 6500 µg/mL
